Values quoted from earlier work in patent publication US10849956B2, “Glycopeptide compositions” (priority 2014, dated 2020).

Tests used:
Details in all cases: referent QC range according to the CLSI protocol; cited from earlier work
[1] = system: Streptococcus pnemoniae ATCC 49619
[2] = system: Staphylococcus aureus ATCC 29213
[3] = system: Enterococcus faecalis ATCC 29212

In the case of CC1(C)S[C@@H]2[C@H](NC(=O)[C@H](N)c3ccc(O)cc3)C(=O)N2[C@H]1C(=O)O [Amoxicillin USP standard, Amoxicillin], the “CLSI range / Referent MIC ranges (μg/mL), Streptococcus pnemoniae ATCC 49619” value [1] is given as “(0.03-0.125) μg/mL”, the “CLSI range / Referent MIC ranges (μg/mL), Staphylococcus aureus ATCC 29213” value [2] is given as “(0.5-2) μg/mL” and the “CLSI range / Referent MIC ranges (μg/mL), Enterococcus faecalis ATCC 29212” value [3] is given as “(0.5-2) μg/mL”.
